US12459974B2, “Bicyclic peptide ligands specific for Nectin-4” (priority 2018, dated 2025)

Target: T1, human Nectin-4 (Homo sapiens, UniProt Q96NY8)
T1 sequence (Q96NY8 32-510): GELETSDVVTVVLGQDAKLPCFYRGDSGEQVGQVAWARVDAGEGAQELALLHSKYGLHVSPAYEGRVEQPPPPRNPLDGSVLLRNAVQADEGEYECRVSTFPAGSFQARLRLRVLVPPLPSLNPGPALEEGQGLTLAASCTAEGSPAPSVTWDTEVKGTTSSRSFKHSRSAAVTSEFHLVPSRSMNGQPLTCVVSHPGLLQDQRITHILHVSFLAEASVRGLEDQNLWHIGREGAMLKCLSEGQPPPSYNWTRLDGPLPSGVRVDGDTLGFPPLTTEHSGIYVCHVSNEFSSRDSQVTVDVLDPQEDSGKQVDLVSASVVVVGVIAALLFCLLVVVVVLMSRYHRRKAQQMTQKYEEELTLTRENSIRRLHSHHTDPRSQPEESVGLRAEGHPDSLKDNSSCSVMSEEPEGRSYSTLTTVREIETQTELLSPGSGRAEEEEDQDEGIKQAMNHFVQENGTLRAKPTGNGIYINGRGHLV
Assay: Nectin-4 direct binding assay (fluorescence polarisation)
Conditions: direct binding, fluorescently tagged peptide, TATA scaffold
Method: Affinity of the peptides of the invention for human Nectin-4 (Ki) was determined using a fluorescence polarisation assay, in accordance with the methods disclosed in WO 2016/067035. Peptides of the invention with a fluorescent tag (either fluorescein, SIGMA or Alexa Fluor488™, Fisher Scientific) were diluted to 2.5 nM in PBS with 0.01% tween 20 or 50 mM HEPES with 100 mM NaCl and 0.01% tween pH 7.4 (both referred to as assay buffer). This was combined with a titration of protein in the same assay buffer as the peptide to give 1 nM peptide in a total volume of 25 μL in a black walled and bottomed low bind low volume 384 well plates, typically 5 μL assay buffer, 10 μL protein then 10 μL fluorescent peptide. […] Measurements were conducted on a BMG PHERAstar FS equipped with an “FP 485 520 520” optic module which excites at 485 nm and detects parallel and perpendicular emission at 520 nm. The PHERAstar FS was set at 25° C. with 200 flashes per well and a positioning delay of 0.1 second, with each well measured at 5 to 10 minute intervals for 60 minutes. The gain used for analysis was determined for each tracer at the end of the 60 minutes where there was no protein in the well. Data was analysed using Systat Sigmaplot version 12.0. mP values were fit to a user defined quadratic equation to generate a Kd value: f=ymin+(ymax−ymin)/Lig*((x+Lig+Kd)/2-sqrt((((x+Lig+Kd)/2)^2)−(Lig*x))). […]

Molecule | Ki [nM]
FI-A-(SQ ID NO: 1)-A [80-09-02-N006] | 5

Same assay, conditions: fluorescent tracer peptide of the competition assay

Molecule | Kd [nM]
ACPFGCHTDWSWPIWCA-Sar6-K(FI) [reference compound] | 5

Target: T1, human Nectin-4
Assay: Nectin-4 competition binding assay (fluorescence polarisation)
Conditions: competition with fluorescent peptide SEQ ID NO: 217
Method: Peptides were diluted to an appropriate concentration in assay buffer as described in the direct binding assay with a maximum of 5% DMSO, then serially diluted 1 in 2. Five μL of diluted peptide was added to the plate followed by 10 μL of human Nectin-4, then 10 μL fluorescent peptide added. Measurements were conducted as for the direct binding assay, however the gain was determined prior to the first measurement. Data analysis was in Systat Sigmaplot version 12.0 where the mP values were fit to a user defined cubic equation to generate a Ki value: • f=ymin+(ymax−ymin)/Lig*((Lig*((2*((Klig+Kcomp+Lig+Comp-Prot*c)^2-3*(Kcomp*(Lig-Prot*c)+Klig*(Comp-Prot*c)+Klig*Kcomp))^0.5*COS(ARCCOS((−2*(Klig+Kcomp+Lig+Comp-Prot*c)^3+9*(Klig+Kcomp+Lig+Comp-Prot*c)*(Kcomp*(Lig-Prot*c)+Klig*(Comp-Prot*c)+Klig*Kcomp)−27*(−1*Klig*Kcomp*Prot*c)/(2*((((Klig+Kcomp+Lig+Comp-Prot*c)^2−3*(Kcomp*(Lig-Prot*c)+Klig*(Comp-Prot*c)+Klig*Kcomp))^3)^0.5)))/3))−(Klig+Kcomp+Lig+Comp-Prot*c)))/((3*Klig)+((2*((Klig+Kcomp+Lig+Comp-Prot*c)^2−3*(Kcomp*(Lig-Prot*c)+Klig*(Comp-Prot*c)+Klig*Kcomp))^0.5*COS (ARCCOS ((−2*(Klig+Kcomp+Lig+Comp-Prot*c)^3+9*(Klig+Kcomp+Lig+Comp-Prot*c)*(Kcomp*(Lig-Prot*c)+Klig*(Comp-Prot*c)+Klig*Kcomp)-27*(−1*Klig*Kcomp*Prot*c))/(2*((((Klig+Kcomp+Lig+Comp-Prot*c)^2-3*(Kcomp*(Lig-Prot*c)+Klig*(Comp-Prot+c)+Klig*Kcomp))^3)^0.5))/3)−(Klig+Kcomp+Lig+Comp-Prot*c)))).
“Lig”, “KLig” and “Prot” were all defined values relating to: fluorescent peptide concentration, the Kd of the fluorescent peptide and Nectin concentration respectively.

Molecule | Ki [nM]
Ac-(SEQ ID NO: 83) [BCY7588] | 342
Ac-(SEQ ID NO: 93) [BCY7598] | 74.9
Ac-(SEQ ID NO: 138) [BCY7897] | 166

Same assay, conditions: competition with fluorescent peptide SEQ ID NO: 217; read-out: Ki

Molecule | Ki [nM]
CC[C@H](C)[C@@H]1NC(=O)[C@@H]2CCCN2C(=O)[C@H](Cc2c[nH]c3ccccc23)NC(=O)[C@H](CO)NC(=O)[C@H](Cc2c[nH]c3ccccc23)NC(=O)[C@H](CC(N)=O)NC(=O)[C@H](CCCCN)NC(=O)[C@H](CCSC)NC(=O)[C@@H]2CSCCC(=O)N3CN(CN(C3)C(=O)CCSC[C@H](NC(=O)[C@H](C)N)C(=O)N3CCC[C@H]3C(=O)N[C@@H](Cc3ccccc3)C(=O)NCC(=O)N2)C(=O)CCSC[C@@H](C(=O)N[C@H](C(=O)N[C@H](C)C(=O)N[C@@H](CCCCN)C(N)=O)[C@@H](C)O)NC(=O)[C@H](Cc2c[nH]c3ccccc23)NC1=O [BCY7368, A-(SEQ ID NO: 1)-T[dA]K] | 23
CC[C@H](C)[C@@H]1NC(=O)[C@H](CCCNC(=N)N)NC(=O)[C@H](CC(N)=O)NC(=O)[C@@H]2CSCCC(=O)N3CN(CN(C3)C(=O)CCSC[C@H](NC(=O)[C@H](Cc3c[nH]c4ccccc34)NC(=O)[C@H](CCCCN)NC(=O)[C@H](CCC(N)=O)NC(C)=O)C(=O)N[C@@H](C)C(=O)N3CCC[C@H]3C(=O)N[C@@H](CC(C)C)C(=O)N[C@@H](CO)C(=O)N[C@@H](C)C(=O)N[C@@H](Cc3ccc(O)cc3)C(=O)N[C@@H](Cc3c[nH]c4ccccc34)C(=O)N2)C(=O)CCSC[C@@H](C(N)=O)NC1=O [BCY7628, Ac-QKW-(SEQ ID NO: 105)] | 23
(MeO-dPEG12) (PEG3) (PEG3) (SEQ ID NO: 115) [BCY8094] | 28.9
(MeO-dPEG12) (SEQ ID NO: 115) [BCY8087] | 17.9
(PEG3) (PEG3) (SEQ ID NO: 115) [BCY7815] | 32
Ac-(SEQ ID NO: 11) [BCY7657] | 23.2
Ac-(SEQ ID NO: 60) [BCY7616] | 51
Ac-(SEQ ID NO: 73) [BCY7535] | 64
Ac-(SEQ ID NO: 75) [BCY7541] | 76.5
Ac-(SEQ ID NO: 78) [BCY7580] | 13.5
Ac-(SEQ ID NO: 79) [BCY7581] | 19.4
Ac-(SEQ ID NO: 82) [BCY7585] | 18.5
Ac-(SEQ ID NO: 100) [BCY7615] | 28.4
Ac-(SEQ ID NO: 112) [BCY7664] | 70
Ac-(SEQ ID NO: 114) [BCY7668] | 424
Ac-(SEQ ID NO: 115) [BCY7765] | 8.7
Ac-(SEQ ID NO: 116) (MeO-dPEG12) linked to D-Lys6 [BCY8084] | 26.4
Ac-(SEQ ID NO: 116) [BCY7816] | 36
Ac-(SEQ ID NO: 117) [BCY7817] | 14

Molecule | Ki [nM]
Ac-(SEQ ID NO: 119) (MeO-dPEG12) linked to Lys5 [BCY8088] | 8.9
Ac-(SEQ ID NO: 120) (MeO-dPEG12) linked to D-Lys3 [BCY8089] | 8
Ac-(SEQ ID NO: 121) (MeO-dPEG12) linked to Lys4 [BCY8090] | 57
Ac-(SEQ ID NO: 122) (MeO-dPEG12) linked to Lys6 [BCY8091] | 23
Ac-(SEQ ID NO: 131) [BCY7889] | 58.1
Ac-(SEQ ID NO: 132) [BCY7890] | 98.9
Ac-(SEQ ID NO: 135) [BCY7894] | 126
Ac-(SEQ ID NO: 136) [BCY7895] | 49.1
Ac-(SEQ ID NO: 137) [BCY7896] | 44
Ac-(SEQ ID NO: 139) [BCY7902] | 4
Ac-(SEQ ID NO: 141) [BCY7904] | 8
Ac-(SEQ ID NO: 142) [BCY7906] | 6
Ac-(SEQ ID NO: 145) [BCY7911] | 13
Ac-(SEQ ID NO: 147) [BCY7913] | 16
Ac-(SEQ ID NO: 149) [BCY7915] | 20
Ac-(SEQ ID NO: 150) [BCY7916] | 45
Ac-(SEQ ID NO: 164) [BCY8042] | 20.4
Ac-(SEQ ID NO: 165) [BCY8043] | 8.8
Ac-[dD][dD][dD]-(SEQ ID NO: 115) [BCY8029] | 77.8

Target: T2, human Nectin-4 (Homo sapiens, UniProt Q96NY8)
T2 sequence (Q96NY8 32-349): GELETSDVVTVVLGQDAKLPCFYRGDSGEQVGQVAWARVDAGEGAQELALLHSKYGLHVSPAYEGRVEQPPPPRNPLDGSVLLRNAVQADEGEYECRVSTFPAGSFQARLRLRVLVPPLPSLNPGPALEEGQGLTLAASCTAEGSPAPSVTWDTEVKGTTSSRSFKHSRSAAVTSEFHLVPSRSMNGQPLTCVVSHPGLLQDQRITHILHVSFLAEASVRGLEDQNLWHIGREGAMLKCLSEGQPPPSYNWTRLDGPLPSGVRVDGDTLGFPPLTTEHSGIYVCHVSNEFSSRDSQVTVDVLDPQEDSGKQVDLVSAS
Assay: Nectin-4 Biacore SPR binding assay
Conditions: read-out: Human SPR Kd; peptide ligands (Table 3)

Molecule | Kd [nM]
Ac-(SEQ ID NO: 115) [BCY7765] | 24.9
Ac-(SEQ ID NO: 211) [BCY8831] | 2.14
